{"source": "paper PMC4703101", "about": "(Chemical research in toxicology, 2015)", "tested_on": "Aldehyde Oxidase", "assay": "Aldehyde oxidase assay, liver cytosol", "conditions": "WT mouse liver cytosol; substrate 25 μM (DMAC), 100 μM (AαC); N.D. = not detected", "data": [{"substance": "p-dimethylaminocinnamaldehyde [DMAC, reference compound]", "values": [{"measurement": "Aldehyde Oxidase", "result": "783 ± 93", "unit": "nmol/min/mg protein"}]}]}
